“And” between values parts separate entries of the source, which are not always exact repeats. Equal values may be shown once. What follows is the remainder of the data, with few or none of the hits. Inconclusive results are not listed. The source made the active and inactive calls. The call rests on the fitted dose curve; in most records, active means well fitted activation curve with a large enough effect in the repeat runs; inconclusive means weak or mixed curves; inactive means no such curve, though single readings can be large or run the other way.
On the % scale 0 is the no-effect control and ±100 the full control effect; potency means the concentration at half of the fitted maximal effect.

The chains behind the UniProt entries cited, without tags or fusion partners. Where a name states a change or a piece, a line headed by the entry shows the natural chain unless it says otherwise.
UniProt O75469: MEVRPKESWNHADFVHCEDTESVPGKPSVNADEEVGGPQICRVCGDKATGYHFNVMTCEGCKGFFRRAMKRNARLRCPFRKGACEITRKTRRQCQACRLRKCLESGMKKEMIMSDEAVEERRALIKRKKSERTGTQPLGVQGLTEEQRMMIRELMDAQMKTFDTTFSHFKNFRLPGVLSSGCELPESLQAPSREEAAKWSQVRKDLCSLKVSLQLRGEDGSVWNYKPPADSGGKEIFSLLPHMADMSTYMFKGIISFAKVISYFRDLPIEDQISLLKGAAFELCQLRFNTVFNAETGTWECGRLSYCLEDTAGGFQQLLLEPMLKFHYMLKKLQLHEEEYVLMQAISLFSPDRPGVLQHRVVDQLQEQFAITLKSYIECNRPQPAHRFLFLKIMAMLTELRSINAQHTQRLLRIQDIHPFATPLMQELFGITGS

The target of this experiment is Nuclear receptor subfamily 1 group I member 2 (Homo sapiens) (UniProt O75469). As to the kind of experiment: Human pregnane X receptor (PXR) small molecule agonists, qHTS assay (AID 1346982). Further: nearly all actives have a fitted effect of over 35% in size. To be noted: PXR-Luc HepG2, CYP3A4 luciferase reporter, 24 h; activation: at the top concentration. The text has this:
National Center for Advancing Translational Sciences [NCATS]
NIH Chemical Genomics Center [NCGC]
U.S. Environmental Protection Agency [EPA]
National Institutes of Environmental Health Sciences [NIEHS]
National Toxicology Program [NTP]
The human pregnane X receptor (hPXR) regulates the expression of several drug metabolizing enzymes and induction of these proteins is a major mechanism for developing drug resistance in cancer. One such key enzyme catalyzing the drug metabolism is cytochrome P450 3A4 (CYP3A4). Changes in CYP3A4 expression affect drug metabolism, thereby reducing the therapeutic efficacy and altering toxicological response to a drug and which finally causes adverse drug interaction. To screen Tox21 libraries for compounds that activate hPXR-mediated CYP3A4 gene expression, PXR-Luc HepG2 cells were used.
PXR-Luc HepG2 cells were dispensed at 2,000 per well in 5uL of assay medium containing 5% charcoal-stripped FBS into white solid bottom 1536-well plates (Corning Life Sciences, Corning, NY) using a Multidrop Combi (Thermo Scientific, Waltham, MA) dispenser. The assay plates were incubated at 37 C and 5% CO2 for 5hr, and then 23nL of compounds dissolved in DMSO and positive control were transferred using a Pintool station (Wako, San Diego, CA). The assay plates were incubated at 37C and 5% CO2 for 24hr. For luciferase read, 4uL of ONE-Glo reagent (Promega Corporation, Madison, WI) was added to each well of the assay plates using Flying Reagent Dispenser (FRD, Aurora Discovery, San Diego, CA) and incubated the assay plates at room temperature for 30min. The luminescence signal was quantified using a ViewLux plate reader (Perkin Elmer, Shelton, CT).
In general terms: Quantitative high-throughput screening tests each substance at several concentrations.
For `O=CO`, the activation was inactive: 3.04% [at 8.39 µM].
Regarding `CC(C)(C)NCC(O)COc1cccc2c1CCC(=O)N2` (stereo not given), the “activation” value was inactive: -2.29%.
Regarding `CCN1CCCC1CNC(=O)c1cc(S(N)(=O)=O)ccc1OC` (stereo not given), the “activation” value is inactive: -3.44% [at 92.4 µM].
For the compound `CCCCc1ncc(/C=C(\Cc2cccs2)C(=O)O)n1Cc1ccc(C(=O)O)cc1`, the “activation” value was inactive: -41.7%.
`NCCNCCNCCN`: the Potency entry was “inactive”.
Turning to `NCCCC[C@H](N[C@@H](CCc1ccccc1)C(=O)O)C(=O)N1CCC[C@H]1C(=O)O`, the “activation” value is inactive: -25.5%.
Regarding `CCCCOCCOCCOCc1cc2c(cc1CCC)OCO2`, the Potency is active: 4.92 µM and active: 11.9 µM.
In the case of `NS(=O)(=O)c1cc(C2(O)NC(=O)c3ccccc32)ccc1Cl` (stereo not given), the “activation” value was inactive: -0.493%.
The same measure, in the same setting: the result for `Clc1cccc(Cl)c1NC1=NCCN1` reads inactive: -8.36%.
With `NC(=O)NC1NC(=O)NC1=O` (stereo not given), the Potency result is “inactive”.
Turning to `CCCN(CCC)S(=O)(=O)c1ccc(C(=O)O)cc1`, the Potency entry is “inactive”.
Turning to `O=c1oc(=O)c2cc3c(=O)oc(=O)c3cc12`, the Potency result was “inactive”.
As to `O=C(O)c1cn(-c2ccc(F)cc2)c2cc(N3CCNCC3)c(F)cc2c1=O`, the Potency entry was “inactive”.
The same measure, in the same setting: the result for `CC[N+](CC)(CC(=O)Nc1c(C)cccc1C)Cc1ccccc1` reads “inactive”.
Turning to `CO/N=C(/C(=O)N[C@@H]1C(=O)N2C(C(=O)O)=C(COC(N)=O)CS[C@H]12)c1ccco1`, the “activation” value is inactive: -8.45% [at 92.4 µM].
For the compound `O=c1c(O)c(-c2ccc(O)cc2)oc2cc(O)cc(O)c12`, the Potency is active: 60.9 µM and active: 41.3 µM.
With `NC1=NCC2c3ccccc3Cc3ccccc3N12` (stereo not given), the “activation” value was inactive: -11.8%.
Same read-out and setting: then `CCOC(=O)[C@H](CCc1ccccc1)N[C@@H](C)C(=O)N1CCC[C@H]1C(=O)O`, with inactive: -0.439%.
Regarding `Cc1ccc(O)c([C@H](CCN(C(C)C)C(C)C)c2ccccc2)c1`, the Potency is active: 3.35 µM.
On the same count and under the same terms, the result for `Oc1ccc2ccccc2c1` reads active: 62.6 µM and active: 34.4 µM.
For the compound `C=CCSCC1Nc2cc(Cl)c(S(N)(=O)=O)cc2S(=O)(=O)N1` (stereo not given), the “activation” value is inactive: -4.28%.
Take `COCCCOc1ccnc(CS(=O)c2nc3ccccc3[nH]2)c1C` (stereo not given): the Potency was active: 7.66 µM.
On the same count and under the same terms, the result for `Oc1c(Cl)cc(Cl)c(Cl)c1Cc1c(O)c(Cl)cc(Cl)c1Cl` reads active: 8.61 µM and active: 8.63 µM.
Consider `CC1(C)[C@@H](OC(=O)CCC(=O)O)CC[C@]2(C)[C@H]3C(=O)C=C4[C@@H]5C[C@@](C)(C(=O)O)CC[C@]5(C)CC[C@@]4(C)[C@]3(C)CC[C@@H]12`, for which the “activation” value is inactive: -3.02%.
As to `COc1cc(Nc2c(C#N)cnc3cc(OCCCN4CCN(C)CC4)c(OC)cc23)c(Cl)cc1Cl`, the “activation” value was inactive: -44.1%.
On to `Cc1cc(N)c2cc(NC(=O)Nc3ccc4nc(C)cc(N)c4c3)ccc2n1`, for which the “activation” value was inactive: -9.37%.
Same read-out and setting: the result for `O=C=Nc1ccc(Cc2ccc(N=C=O)cc2)cc1` reads inactive: -0.369%.
Same read-out and setting: the result for `CC[N+](C)(C)c1cccc(O)c1` reads inactive: -1.8%.
On to `CC1(C)OC(=O)NC1=O`, for which the Potency result is “inactive”.
On to `O=C(NCCO[N+](=O)[O-])c1cccnc1`, for which the “activation” value is inactive: -6.1%.
With `CC(C)(C)c1ccc(C(=O)O)cc1`, the “activation” value is inactive: 8.07% [at 92.4 µM].
`O=S1(=O)N=C(O)c2ccccc21`: the “activation” value is inactive: -2.45%.
Consider `Cc1c(O)cccc1C(=O)N[C@@H](CSc1ccccc1)[C@H](O)CN1C[C@H]2CCCC[C@H]2C[C@H]1C(=O)NC(C)(C)C`, for which the Potency is active: 23.7 µM and active: 33.5 µM.
The same measure, in the same setting: the result for `CCO[C@@H]1O[C@H](C(COCc2ccccc2)OCc2ccccc2)[C@H](OCc2ccccc2)[C@H]1O` (stereo not given in full) reads active: 5.96 µM.
Regarding `NC[C@H]1O[C@H](O[C@H]2[C@H](O[C@@H]3O[C@H](CO)[C@@H](O)[C@H]3O)C(O)[C@H](N)C[C@@H]2N)[C@H](N)[C@@H](O)[C@@H]1O` (stereo not given in full), the activation is inactive: -2.38% [at 8.39 µM].
Turning to `CC1CC(OC(=O)C(O)c2ccccc2)CC(C)(C)N1C` (stereo not given), the “activation” value is inactive: -3.23%.
As for `NC(=O)N1c2ccccc2CC(=O)c2ccccc21`, the “activation” value is inactive: -7.02%.
Turning to `Oc1cccc2ccccc12`, the Potency is active: 54.5 µM.
In the case of `C[N+](C)(C)CCCCCC[N+](C)(C)C`, the Potency result was “inactive”.
For the compound `CNCC[C@H](Oc1cccc2ccccc12)c1cccs1`, the “activation” value is inactive: -60%.
